Target: Mitogen-activated protein kinase 10 (Homo sapiens, UniProt P53779)
Experiment: Inhibition of human JNK3 using ATF2 as substrate incubated for 40 mins in presence of Mg-ATP mix by scintillation counter analysis

Protein sequences, listed by entry. Tags and fused reporters are not part of them. Lines headed by an entry give the natural chain unless they say otherwise; changes in a name come on top.
UniProt P53779: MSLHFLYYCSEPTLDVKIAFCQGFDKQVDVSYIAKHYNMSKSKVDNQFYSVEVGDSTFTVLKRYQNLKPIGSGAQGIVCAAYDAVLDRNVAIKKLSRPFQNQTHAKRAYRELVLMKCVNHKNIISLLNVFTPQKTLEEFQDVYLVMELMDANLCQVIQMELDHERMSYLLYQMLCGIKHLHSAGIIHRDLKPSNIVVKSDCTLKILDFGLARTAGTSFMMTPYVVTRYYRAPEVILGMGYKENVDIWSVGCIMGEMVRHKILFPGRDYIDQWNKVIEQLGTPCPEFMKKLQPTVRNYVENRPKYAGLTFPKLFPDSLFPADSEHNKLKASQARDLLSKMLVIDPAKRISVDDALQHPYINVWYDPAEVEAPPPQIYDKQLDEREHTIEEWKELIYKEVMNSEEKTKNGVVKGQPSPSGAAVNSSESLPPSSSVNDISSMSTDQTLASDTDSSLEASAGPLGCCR

- IC50: 2.9 nM
SMILES: NC(=O)N1Cc2nc(-c3ccc(Cl)c(Cl)c3)n(-c3ccnc(N[C@H]4CCN(C(=O)C5CC5)C4)n3)c2C1
